This test addresses T1, recombinant human PARP (PARP1) (Homo sapiens, UniProt P09874).
T1 construct: Full length human PARP (PARP1) is assembled from PCR fragments; His6 tag with TEV site, from the pFastBac-HTb vector (own knowledge of the vector); made in house; host or cells: insect cells, baculovirus (Bac-to-Bac, Gibco-BRL)
Kind of test: PARP enzyme assay, Method A (radioactivity or 'ELISA' enzyme assay with partially purified enzyme). It is filed as biochemical. The note with it: NAD 200 μM, read-out: IC50 of reference compounds. The text has this:
Two different methods are employed in determining the activity of the compounds of this invention in inhibiting the activity of PARP enzyme, designated as Method A and Method B respectively as set forth below.
Method A: Cloning and Expression, and Partial Purification of Recombinant Human PARP:
Full length human PARP (PARP1) is assembled from PCR fragments of a clone from a human brain cDNA library and two Incyte clones. The PARP gene (3046 bp) is sub-cloned into pFastBac-HTb vector to give PARP-pFastBac-HTb and the sequence of this clone is verified. PARP-pFastBac-HTb is expressed to obtain protein using the Bac-to-Bac expression protocol from Gibco-BRL. The recombinant virus generated is used to scale up the material for purification.
Cell pellets from cell broth of cells expressing PARP are treated with a cocktail of protease inhibitors and lysed by 4 freeze-thaw cycles. The material is suspended in 10 mM HEPES/0.1M NaCl/pH 7.2, stirred, and then centrifuged. […]
Radioactivity Enzyme Assay:
Incorporation of radioactivity from labeled NAD into acid-precipitated protein is measured. […] After washing with TCA and ethanol, the filter is dried and counted for tritium CPM after addition of scintillation fluid.
Incorporation of biotin-NAD into histone coated on plate is measured. […] The TMB reaction is quenched with 2M sulfuric acid and the absorbance at 450 nm is read.

Chains of the proteins cited; added tags and fusions are not shown.
UniProt P09874, whole entry: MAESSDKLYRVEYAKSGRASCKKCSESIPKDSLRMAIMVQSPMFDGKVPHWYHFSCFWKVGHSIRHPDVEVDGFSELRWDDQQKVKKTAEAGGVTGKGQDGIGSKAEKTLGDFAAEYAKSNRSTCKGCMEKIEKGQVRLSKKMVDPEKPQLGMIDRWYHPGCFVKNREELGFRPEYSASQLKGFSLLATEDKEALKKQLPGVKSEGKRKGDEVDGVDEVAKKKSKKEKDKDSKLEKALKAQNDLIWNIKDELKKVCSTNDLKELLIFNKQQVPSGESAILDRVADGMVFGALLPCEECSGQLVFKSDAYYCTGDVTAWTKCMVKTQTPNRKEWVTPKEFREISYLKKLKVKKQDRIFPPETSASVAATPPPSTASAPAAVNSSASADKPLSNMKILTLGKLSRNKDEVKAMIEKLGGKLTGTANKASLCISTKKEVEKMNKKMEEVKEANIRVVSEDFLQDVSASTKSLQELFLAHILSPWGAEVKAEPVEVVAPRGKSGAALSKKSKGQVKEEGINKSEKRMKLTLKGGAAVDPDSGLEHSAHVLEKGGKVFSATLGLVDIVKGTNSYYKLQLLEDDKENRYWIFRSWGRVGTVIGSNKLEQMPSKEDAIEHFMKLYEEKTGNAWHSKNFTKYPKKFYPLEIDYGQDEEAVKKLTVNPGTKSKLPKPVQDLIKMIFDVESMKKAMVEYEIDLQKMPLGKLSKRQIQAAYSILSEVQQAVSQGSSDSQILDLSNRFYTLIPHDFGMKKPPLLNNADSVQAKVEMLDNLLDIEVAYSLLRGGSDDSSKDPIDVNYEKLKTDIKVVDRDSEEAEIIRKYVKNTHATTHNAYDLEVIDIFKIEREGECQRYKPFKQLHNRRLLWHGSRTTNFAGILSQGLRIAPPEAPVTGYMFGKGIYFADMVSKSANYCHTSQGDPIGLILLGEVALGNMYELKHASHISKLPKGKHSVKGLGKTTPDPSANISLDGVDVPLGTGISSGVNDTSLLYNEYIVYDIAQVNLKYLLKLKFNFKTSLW

Usually IC50 stands for the concentration that gives 50% inhibition. As to DPQ [reference compound], the IC50 came to 11 µM.

The values above are taken from patent US8173682B2, “Substituted pyridones as inhibitors of poly(ADP-ribose) polymerase (PARP)” (Aventis Pharmaceuticals Inc., priority 2004, dated 2012).
